These results are taken from patent US20180360810A1, “NUPHARIDINE COMPOUNDS AND DERIVATIVES THEREOF FOR THE TREATMENT OF CYSTEINE PROTEASE RELATED DISEASES” (B. G. NEGEV TECHNOLOGIES AND APPLICATIONS LTD., AT …, priority 2015, published 2018).

By UniProt entry, the sequences of proteins in these tests, tags left out. Residues count along the entry.
UniProt P00784, 134-345 limits assumed: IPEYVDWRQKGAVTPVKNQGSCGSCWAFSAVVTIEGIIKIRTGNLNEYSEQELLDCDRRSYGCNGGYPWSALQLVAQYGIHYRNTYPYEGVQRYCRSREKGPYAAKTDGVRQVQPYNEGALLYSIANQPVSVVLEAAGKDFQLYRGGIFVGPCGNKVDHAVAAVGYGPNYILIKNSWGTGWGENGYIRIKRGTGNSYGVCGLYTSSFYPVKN

For this experiment, the target named is Papain latex (Carica papaya, UniProt P00784). Description: Papain inhibition assay, Casein FITC. As to conditions: read-out: IC50 (Nanomolar); substrate Casein FITC; pH 6.5; molarity calculated on assumed molecular weight of 526 daltons; tested form: trifluoroacetate. The protocol:
The assays were performed in triplicates using transparent 96 well plates (167008; Nunc, Roskilde, Denmark). Reaction mixture 100 μl contained: 35 μl reaction buffer (0.1 M phosphate buffer, pH 6.5), 50 μl of Casein FITC (C3777-25MG; sigma), serially dissolved in reaction buffer to concentrations ranging from 10 μg/100 μl to 1.25 μg/100 μl in the final reaction. Inhibitors dissolved in DMSO were added in 5 μl aliquots at final concentrations in reaction mixture ranging from 0.05 μg/μl to 0.005 μg/μl. In control reaction 5 μl DMSO was added. Papain (P3125-100 mg; sigma) stock of 5 μg/100 μl dissolved in reaction buffer was added last in a 10 μl aliquot at a final concentration of 0.5 μg/100 μl reaction mixture, just before the fluorometric measurement. The data was collected for 2.5 h every 90 sec. Initial reaction velocity in reactions containing various substrate concentrations ranging from 1.25 to 10 μg/μl were used to calculate the IC50 values. […]
Inhibition assays were performed in triplicates using 96 well plates transparent for Calpain, Trypsin, Papain, Cathepsin L and Cathepsin B (167008; Nunc, Roskilde, Denmark), or black for Cathepsin S, Cathepsin D and Insulyzin (ide) (Greiner 96 Polystyrol GRE96fb) according to manufacturers' instructions. […] Molarity of inhibitors were calculated based on assumed molecular weight of 526 daltons as a reference value for comparative evaluations.

Molecules are shown by their SMILES.

In the case of `C1=[N+](CCCCc2ccccc2)CCCC12CCCS2` (stereo not shown), the IC50 is 78.5 nM.

By IC50 is commonly meant the midpoint of a concentration-inhibition curve.
